ChEMBL document CHEMBL5576140, “Computational Design of Pore-Forming Peptides with Potent Antimicrobial and Anticancer Activities” (J Med Chem, 2024)

Test: Anti-cancer activity against human MEC-1 cells incubated for 24 hrs by WST assay
Type: functional, cell-based
Details: MEC1, 24 h

For CC[C@H](C)[C@H](NC(=O)CN)C(=O)NCC(=O)N[C@@H](C)C(=O)N[C@H](C(=O)N[C@@H](CC(C)C)C(=O)N[C@@H](CCCCN)C(=O)N[C@H](C(=O)N[C@@H](CC(C)C)C(=O)N[C@H](C(=O)N[C@H](C(=O)NCC(=O)N[C@@H](CC(C)C)C(=O)N1CCC[C@H]1C(=O)N[C@@H](C)C(=O)N[C@@H](CC(C)C)C(=O)N[C@H](C(=O)N[C@@H](CO)C(=O)N[C@@H](Cc1c[nH]c2ccccc12)C(=O)N[C@H](C(=O)N[C@@H](CCCCN)C(=O)N[C@@H](CCCNC(=N)N)C(=O)N[C@@H](CCCCN)C(=O)N[C@@H](CCCNC(=N)N)C(=O)N[C@@H](CCC(N)=O)C(=O)N[C@@H](CCC(N)=O)C(N)=O)[C@@H](C)CC)[C@@H](C)CC)[C@@H](C)O)[C@@H](C)O)C(C)C)C(C)C [MELITTIN], the IC50 was no more than 5 µM.
